# Laboratory results published in patent publication US20110045517A1, “Toxic Material Detection Apparatus and Method” (published 2011).
# “And” between values parts separate entries of the source, which are not always exact repeats. Identical values can stand only once.
# Legend:
# [1] = Stability of colorimetric reagents in solution
# [2] = Stability of the AChE solution (reaction with ATCI and DTNB, absorbance)
# [3] = Day 0, New (fresh cold solution)
# [4] = Day 1, New (fresh cold solution)
# [5] = Day 2, New (fresh cold solution)
molecule,measurement,setting,value
Guinea Green,stability versus pH (Comments column of Table 4),[1],Not stable in pH above 7.5
CC(=O)SCC[N+](C)(C)C.[I-],stability versus pH (Comments column of Table 4),[1],ATIC not stable in pH 7.8
same,stability in Tris buffer,[1]; Tris buffer,not stable
same,light and temperature sensitivity in solution,[1],light- and temperature-sensitive
same,stability in water,"[1]; water, kept cold and in an amber vial",stable
acetylcholinesterase,% Difference from day 0,[2]; [3],0.0%
same,"Difference absorbance reading, Average",[2]; [3],0.996
same,Difference absorbance reading (individual readings),"[2]; Day 0, New (fresh cold solution, dilution Jul. 9, 2007)",0.958 and 1.089 and 0.941
same,% Difference from day 0,[2]; [4],−40.7%
same,"Difference absorbance reading, Average",[2]; [4],0.589
same,Difference absorbance reading (individual readings),"[2]; Day 1, New (fresh cold solution, dilution Jul. 9, 2007)",0.632 and 0.501 and 0.635
same,% Difference from day 0,[2]; [5],−58.5%
same,"Difference absorbance reading, Average",[2]; [5],0.411
same,Difference absorbance reading (individual readings),"[2]; Day 2, New (fresh cold solution, dilution Jul. 9, 2007)",0.423 and 0.407 and 0.402
same,% Difference from day 0,"[2]; Day 5, RT",−49.9%
same,"Difference absorbance reading, Average","[2]; Day 5, RT",0.402
same,Difference absorbance reading (individual readings),"[2]; Day 5, RT, dilution Jul. 5, 2007",0.430 and 0.432 and 0.345
same,% Difference from day 0,"[2]; Day 6, RT",−53.2%
same,"Difference absorbance reading, Average","[2]; Day 6, RT",0.369
same,Difference absorbance reading (individual readings),"[2]; Day 6, RT, dilution Jul. 5, 2007",0.374 and 0.369 and 0.365
same,% Difference from day 0 (difference absorbance reading),"[2]; Tris buffer, Day 0, Cold",0.0%
same,% Difference from day 0 (initial absorbance reading),"[2]; Tris buffer, Day 0, Cold",0.0%
same,"Difference absorbance reading, Average","[2]; Tris buffer, Day 0, Cold",0.879
same,initial absorbance reading (individual readings),"[2]; Tris buffer, Day 0, Cold",0.286 and 0.294 and 0.238
same,"initial absorbance reading, Average","[2]; Tris buffer, Day 0, Cold",0.273
same,Difference absorbance reading (individual readings),"[2]; Tris buffer, Day 0, Cold, 5 minute minus initial reading",0.884 and 0.945 and 0.809
same,% Difference from day 0 (difference absorbance reading),"[2]; Tris buffer, Day 0, RT",0.0%
same,% Difference from day 0 (initial absorbance reading),"[2]; Tris buffer, Day 0, RT",0.0%
same,"Difference absorbance reading, Average","[2]; Tris buffer, Day 0, RT",0.901
same,initial absorbance reading (individual readings),"[2]; Tris buffer, Day 0, RT",0.312 and 0.331 and 0.285
same,"initial absorbance reading, Average","[2]; Tris buffer, Day 0, RT",0.309
same,Difference absorbance reading (individual readings),"[2]; Tris buffer, Day 0, RT, 5 minute minus initial reading",0.841 and 1.019 and 0.844
same,% Difference from day 0 (difference absorbance reading),"[2]; Tris buffer, Day 1, Cold",−38.0%
same,% Difference from day 0 (initial absorbance reading),"[2]; Tris buffer, Day 1, Cold",−11.2%
same,"Difference absorbance reading, Average","[2]; Tris buffer, Day 1, Cold",0.500
same,"initial absorbance reading, Average","[2]; Tris buffer, Day 1, Cold",0.161
same,% Difference from day 0 (difference absorbance reading),"[2]; Tris buffer, Day 1, RT",−20.0%
same,% Difference from day 0 (initial absorbance reading),"[2]; Tris buffer, Day 1, RT",−7.9%
same,"Difference absorbance reading, Average","[2]; Tris buffer, Day 1, RT",0.702
same,"initial absorbance reading, Average","[2]; Tris buffer, Day 1, RT",0.231
same,% Difference from day 0 (difference absorbance reading),"[2]; Tris buffer, Day 4, Cold",−55.7%
same,% Difference from day 0 (initial absorbance reading),"[2]; Tris buffer, Day 4, Cold",−18.5%
same,"Difference absorbance reading, Average","[2]; Tris buffer, Day 4, Cold",0.322
same,initial absorbance reading (individual readings),"[2]; Tris buffer, Day 4, Cold",0.087 and 0.089 and 0.088
same,"initial absorbance reading, Average","[2]; Tris buffer, Day 4, Cold",0.088
same,Difference absorbance reading (individual readings),"[2]; Tris buffer, Day 4, Cold, 5 minute minus initial reading",0.330 and 0.318 and 0.319
same,% Difference from day 0 (difference absorbance reading),"[2]; Tris buffer, Day 4, RT",−34.7%
same,% Difference from day 0 (initial absorbance reading),"[2]; Tris buffer, Day 4, RT",−14.8%
same,"Difference absorbance reading, Average","[2]; Tris buffer, Day 4, RT",0.555
same,initial absorbance reading (individual readings),"[2]; Tris buffer, Day 4, RT",0.162 and 0.164 and 0.158
same,"initial absorbance reading, Average","[2]; Tris buffer, Day 4, RT",0.161
same,Difference absorbance reading (individual readings),"[2]; Tris buffer, Day 4, RT, 5 minute minus initial reading",0.543 and 0.577 and 0.544
O=C(O)c1cc(SSc2ccc([N+](=O)[O-])c(C(=O)O)c2)ccc1[N+](=O)[O-],light and temperature sensitivity in solution,[1],light- and temperature-sensitive
